Assay results as given in PubChem BioAssay AID886 (National Center for Advancing Translational Sciences (NCATS), 2007).
The whole screen tested about 73,000 compounds, of which about 2,500 (3.4%) were called active. The source calls these results inconclusive, neither active nor inactive. Calls follow the shape of the dose curve; as a rule, active = well fitted inhibition curve with a large enough effect; inconclusive = small, poorly fitted or top-dose-only effect; inactive = no such curve, though single readings can be large or run the other way.

Amino acid sequences for entries named in this document (tags omitted). A change or cut given only in a name is not applied to a line headed by its entry.
UniProt Q99714: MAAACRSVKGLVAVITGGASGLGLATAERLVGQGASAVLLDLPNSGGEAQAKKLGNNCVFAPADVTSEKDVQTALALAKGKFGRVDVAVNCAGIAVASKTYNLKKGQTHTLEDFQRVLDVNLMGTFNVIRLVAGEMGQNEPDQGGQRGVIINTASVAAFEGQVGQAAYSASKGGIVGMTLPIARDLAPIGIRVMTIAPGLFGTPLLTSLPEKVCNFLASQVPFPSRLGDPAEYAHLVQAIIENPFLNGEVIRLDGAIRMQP

Target: 3-hydroxyacyl-CoA dehydrogenase type-2 (Homo sapiens) (UniProt Q99714)
Test: qHTS Assay for Inhibitors of HADH2 (Hydroxyacyl-Coenzyme A Dehydrogenase, Type II); also: nearly all actives have a fitted effect of over 60% in size
Conditions: recombinant HADH2, NADH fluorescence, beta-hydroxybutyryl-CoA
Potency is read from the fitted curve at half-maximal effect.

Row | Structure (SMILES) | Potency
1 | CCc1nc2c(n1)c1c(non1O)c1c2no[n+]1[O-] | inconclusive: 39.8 µM
